# Experimental data published in publication PMC10272112 (Nature Communications, 2023).
# pEC50: −log10 of the molar value.
# Molecular target: T1, HDAC8 (Homo sapiens, UniProt Q9BY41)
# T1 sequence (Q9BY41 1-377): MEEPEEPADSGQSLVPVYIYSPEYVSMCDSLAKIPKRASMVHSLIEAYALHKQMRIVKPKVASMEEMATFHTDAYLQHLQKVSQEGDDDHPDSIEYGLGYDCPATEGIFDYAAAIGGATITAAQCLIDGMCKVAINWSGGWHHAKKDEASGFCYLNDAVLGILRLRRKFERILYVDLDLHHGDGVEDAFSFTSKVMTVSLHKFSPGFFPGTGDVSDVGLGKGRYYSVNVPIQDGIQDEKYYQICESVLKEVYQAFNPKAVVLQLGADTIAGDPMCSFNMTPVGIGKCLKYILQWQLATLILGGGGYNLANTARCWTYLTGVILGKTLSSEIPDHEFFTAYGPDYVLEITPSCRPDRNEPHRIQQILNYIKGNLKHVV
# Experiment: HDAC-Glo assay
# Assay type: biochemical
# Design: purchased BPS Bioscience 50008
# Method: To validate the inhibition of HDACs by LA and LM and elaborate on the structure-activity relationship (SAR) of enantiomers as well as oxidized versus reduced forms of the molecules, we performed enzyme activity assays for recombinant HDAC1,2,3,6,8 as well as FRET-based binding assay for recombinant HDAC10. […] . To measure the potential dependence of HDAC inhibition on the redox state of the molecules, experiments were performed in the presence or absence of TCEP, a reducing agent with no effect on HDAC activity and HDAC inhibitor binding under the assay conditions (Supplementary Fig. 2a). […] . […] As observed in the chemoproteomic experiments, potent HDAC10 binding of (R/S)-LM could be confirmed. […] . […] This makes (S)-LA an ideal negative control for the assessment of which of the phenotypic effects elicited by lipoic acid are related to HDAC inhibition and which are related to other physicochemical properties of the molecule such as metal ion chelation or ROS scavenging.
# The experiments were performed according to ref. [48]. HDAC6 and class I HDAC inhibition was tested using the HDAC-Glo™ I/II Assay and Screening System (G6421, Promega) with recombinant human HDACs (BPS Bioscience; HDAC1 cat. #50051; HDAC2 cat. #50002; HDAC3/NcoR2 complex cat. #50003; HDAC6 cat. #50006; HDAC8 cat. #50008). […] Luminescence was detected with a CLARIOstar (BMG Labtech) plate reader.
compound,measurement,value
O=C(CCCCCCC(=O)Nc1ccccc1)NO [Vorinostat],pEC50,6.04
